Here are results for seven molecules from ChEMBL document CHEMBL4321874, “Discovery of a Novel, Highly Potent, and Selective Thieno[3,2-d]pyrimidinone-Based Cdc7 Inhibitor with a Quinuclidine Moiety (TAK-931) as an Orally Active Investigational Antitumor Agent” (J Med Chem, 2020).

By UniProt entry, the sequences of proteins in these tests, tags left out. Where a name states a change or a piece, a line headed by the entry shows the natural chain unless it says otherwise.
UniProt O00311: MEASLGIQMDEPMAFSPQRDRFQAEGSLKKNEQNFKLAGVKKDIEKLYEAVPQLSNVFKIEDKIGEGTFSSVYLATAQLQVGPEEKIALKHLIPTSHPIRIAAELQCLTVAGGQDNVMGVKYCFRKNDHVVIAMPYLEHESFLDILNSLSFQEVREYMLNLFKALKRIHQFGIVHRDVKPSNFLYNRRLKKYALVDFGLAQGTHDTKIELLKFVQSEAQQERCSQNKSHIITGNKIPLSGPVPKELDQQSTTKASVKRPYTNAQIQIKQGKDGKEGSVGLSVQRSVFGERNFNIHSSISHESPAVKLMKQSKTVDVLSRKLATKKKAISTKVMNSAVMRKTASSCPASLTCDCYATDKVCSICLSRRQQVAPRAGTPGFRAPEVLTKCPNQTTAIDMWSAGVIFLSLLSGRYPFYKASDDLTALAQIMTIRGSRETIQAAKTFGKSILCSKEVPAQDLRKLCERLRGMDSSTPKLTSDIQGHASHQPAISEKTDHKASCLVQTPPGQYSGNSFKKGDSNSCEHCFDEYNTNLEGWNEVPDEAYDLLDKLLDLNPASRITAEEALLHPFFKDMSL

Structures are written as SMILES.

For test [1], the species on record is Homo sapiens. Description: Selectivity index, ratio of IC50 for N-terminal GST-tagged full-length human CDK2 (1 to 298 residues)/Cyclin E (1 to 410 residues) expressed in baculovirus expression system to IC50 for N-terminal GST-fused full-length human CDC7 (1 to 574 end residues)/DBF4 (1 to 674 residues) expressed in baculovirus expression system.
Test [2] deals with T1, Cell division cycle 7-related protein kinase (Homo sapiens, UniProt O00311).
For test [3], the species on record is Homo sapiens. Put plainly: Selectivity index, ratio of IC50 N-terminal GST-tagged human ROCK1 catalytic domain (1 to 477 residues) expressed in baculovirus expression system to IC50 for N-terminal GST-fused full-length human CDC7 (1 to 574 end residues)/DBF4 (1 to 674 residues) expressed in baculovirus expression system.
The target in test [4] is T1, Cell division cycle 7-related protein kinase. This is another data set of the same source.

Regarding `Cc1n[nH]cc1-c1cc2nc([C@@H]3CCCCN3)[nH]c(=O)c2s1`, the values for the Ratio IC50 in the test listed under Homo sapiens [1] and in the test filed under Homo sapiens [3] were 15000 and 950, respectively. For the same molecule, the Kdiss in test [2] was determined as 6.3 ×10⁻⁴ /s.
In the case of `Cc1n[nH]cc1-c1cc2nc([C@H]3CC4CCN3CC4)[nH]c(=O)c2s1`, the Ratio IC50 was 10000 in the test listed under Homo sapiens [1] and 460 in the test filed under Homo sapiens [3].
For the molecule `Cc1n[nH]cc1-c1cc2nc(CN3CCCC3)[nH]c(=O)c2s1`, the Ratio IC50 in the test listed under Homo sapiens [1] amounted to 14000; in the test filed under Homo sapiens [3], 200. Besides, the Kdiss in test [2] worked out at 4.94 ×10⁻⁴ /s.
`Cc1n[nH]cc1-c1cc2nc(C34CC(CN3)C4)[nH]c(=O)c2s1`: the values for the Ratio IC50 in the test filed under Homo sapiens [1] and in the test listed under Homo sapiens [3] were 17000 and 1400, respectively.
Taken in the same sequence, the figures for `O=c1[nH]c([C@@H]2CCCCN2)nc2cc(-c3c[nH]nc3C(F)(F)F)sc12` were 22000 and 1200.
Regarding `Cc1n[nH]cc1-c1cc2nc([C@@H]3CC4CCN3CC4)[nH]c(=O)c2s1` [SIMUROSERTIB], the Kdiss in test [4] turned out to be 6.3 ×10⁻⁴ /s. Further, the Ratio IC50 in the test listed under Homo sapiens [1] was found to be 24000; in the test listed under Homo sapiens [3], 1700.
As for `Cc1n[nH]cc1-c1cc2nc([C@H]3CCCCN3)[nH]c(=O)c2s1`, the Ratio IC50 is 5300 in the test listed under Homo sapiens [1] and 410 in the test listed under Homo sapiens [3].
